Consider one substance from patent US4264492A, “Enkephalin-like compounds in bovine adrenal medulla” (Hoffmann-La Roche Inc., priority 1979, dated 1981).

The chains behind the UniProt entries cited, without tags or fusion partners.
UniProt P32300, whole entry: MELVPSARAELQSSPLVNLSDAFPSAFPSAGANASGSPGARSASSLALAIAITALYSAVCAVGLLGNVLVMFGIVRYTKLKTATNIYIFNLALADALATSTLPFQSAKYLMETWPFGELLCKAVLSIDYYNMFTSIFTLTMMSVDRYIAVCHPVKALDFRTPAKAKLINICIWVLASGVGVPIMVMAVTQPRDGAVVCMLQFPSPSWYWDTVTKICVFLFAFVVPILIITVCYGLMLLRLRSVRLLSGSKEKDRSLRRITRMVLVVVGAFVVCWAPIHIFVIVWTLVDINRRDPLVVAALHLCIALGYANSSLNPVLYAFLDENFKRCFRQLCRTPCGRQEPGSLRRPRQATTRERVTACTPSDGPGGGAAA

In the test the target is T1, neuroblastoma x glioma hybrid cells (Mus musculus, UniProt P32300).
T1 construct: The radioreceptor assay employed neuroblastoma x glioma hybrid cells; endogenous in cells; host or cells: neuroblastoma x glioma hybrid cells
Kind of test: Radioreceptor assay (opioid activity) with ^3 H-Leuenkephalin as the competing ligand. The test is classed as binding. Conditions: fractions from RP-18; 1.3 g wet weight of chromaffin granules isolated from 30 g of adrenal medulla.

In the case of Leu-enkephalin [Leu-enk (std)], the Radioreceptor is 1.0 nmoles/fraction.
